Two compounds from PubChem BioAssay AID624354 (Sanford-Burnham Center for Chemical Genomics, 2012) can be followed below.

SMILES strings stand for the structures. Only a part is listed here, and it is no random draw. Activity calls are given as the source filed them.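 The calls were made as follows: active = compounds causing at least 50% loss of cell viability in the single-dose screen, relative to plate controls; inactive = the rest.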

The assay can be described thus: viability loss with TRAIL in NB7+C8 cells, primary screen, TRAIL sensitizer project, cell-based, ATPlite luminescence (AID 624354). The conditions noted are these: at 10 µM, active compounds read high.
Take `CCC(=O)N(c1ccccc1)C1(COC)CCN(CCc2cccs2)CC1`: the inhibition (viability loss, TRAIL sensitization) is inactive: 7.05%.
Regarding `CCC(=O)N(c1ccccc1)C1(COC)CCN(CCn2nnn(CC)c2=O)CC1`, the inhibition (viability loss, TRAIL sensitization) is inactive: 1.04%.
